Results as given in PMC3588188, “Interactions between Human Liver Fatty Acid Binding Protein and Peroxisome Proliferator Activated Receptor Selective Drugs” (PPAR Research, 2013).

Biological target: T1, human PPARα LBD (aa 196–468) (Homo sapiens, UniProt Q07869)
T1 construct: LBD of human PPARα (aa 196–468); [His]6 (N); made in house; host or cells: E. coli BL21 Codon Plus (DE3)-RIL (plasmid from Krister Bamberg, Astra-Zeneca)
T1 sequence (Q07869 196-468): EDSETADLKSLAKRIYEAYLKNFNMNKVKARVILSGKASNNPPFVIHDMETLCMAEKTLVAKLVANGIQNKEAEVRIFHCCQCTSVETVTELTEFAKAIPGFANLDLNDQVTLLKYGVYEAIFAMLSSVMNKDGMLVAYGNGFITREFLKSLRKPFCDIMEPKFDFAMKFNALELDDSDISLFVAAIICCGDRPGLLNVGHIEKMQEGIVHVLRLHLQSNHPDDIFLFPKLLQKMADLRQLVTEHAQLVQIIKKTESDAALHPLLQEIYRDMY
Experiment: cis-parinaric acid fluorescence displacement assay with PPARα LBD
Details: cis-parinaric acid (2 μM) displacement, LBD 1 μM; nd = no binding detected; read-out: Ki, PPARαLBD
Procedure: Proteins were resolved using a step gradient of 0–300 mM imidazole in buffer A (50 mM Tris-HCl, pH 8.0; 500 mM NaCl; 0.5 mM ethylenediaminetetraacetic acid (EDTA); 1 mM dithiothreitol (DTT); 5% (v/v) glycerol) at a flow rate of 5 mL/min (4 column volumes (CVs) washout unbound sample; 0%–30% imidazole over 5 CVs; hold 30% for 2 CVs; 30%–100% imidazole over 5 CVs; hold 100% for 3 CVs).

Ki: 60 ± 4 nM
Structure (SMILES): Cc1nc(-c2ccc(C(F)(F)F)cc2)sc1C(=O)NCc1ccc(OC(C)(C)C(=O)O)cc1 [GW590735]
